Assay results from patent US6645733B1, “Fluorescent intensity method for assaying binding between proteins or peptides” (Ingeneus Corporation, priority 1999, dated 2003).

Molecular target: T1, human AT1 receptor (Homo sapiens, UniProt P30556)
T1 construct: purchased NEN Life Science Products Inc., Boston, Mass; host or cells: Chinese hamster ovary (CHO) cells, purified membrane preparation
Experiment: Competition binding experiment: displacement of wildtype Flu-AII from AT1 receptor by unlabeled ligand
Details: 10 nM Flu-AII, 0.02 units AT1 receptor

angiotensin II [AII] was tested, and the “decrease in fluorescent intensity compared to Flu-AII alone” value (“decrease … to Flu-AII alone” below) (1 nM unlabeled competitor) was 65%, the “change in competitor concentration required to compete from 90% to 10% specific binding” value (FIG. 2B) was > 100 fold and the “decrease … to Flu-AII alone” value (10 nM unlabeled competitor) was 58%. The “decrease … to Flu-AII alone” value (300 nM unlabeled competitor) was 43%, the “decrease … to Flu-AII alone” value (3 μM unlabeled competitor) was 35% and the “decrease … to Flu-AII alone” value (100 μM unlabeled competitor) was 14%. The “decrease in fluorescent intensity (full competition with Flu-AII for AT1 receptor binding)” value (300 μM unlabeled competitor (3×10^4-fold excess)) was “no decrease in fluorescent intensity”.
